## Binding of CDR-mutated scFvs to a peptide of the spike HR2 region

Reference: Engelhart et al. 2022, doi:10.1038/s41597-022-01779-4. File: FLAb, binding data.

Antigen: PDVDLGDISGINAS, a 14-residue peptide of the SARS-CoV-2 spike HR2 region.

Parent scFv Ab-91: VL joined to VH by the linker GGGGSGGGGSGGGGS. Changes lie in the heavy chain CDRs alone.
VL: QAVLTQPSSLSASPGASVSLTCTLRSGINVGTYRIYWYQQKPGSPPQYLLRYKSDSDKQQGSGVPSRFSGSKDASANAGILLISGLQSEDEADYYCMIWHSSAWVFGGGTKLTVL
VH: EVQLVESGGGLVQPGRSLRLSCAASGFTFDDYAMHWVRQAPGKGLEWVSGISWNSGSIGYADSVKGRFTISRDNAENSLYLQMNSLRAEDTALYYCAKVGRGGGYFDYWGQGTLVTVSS

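In library AAYL51, one, two or three CDR residues were substituted; doubles and triples were drawn at random. Affinity was read by AlphaSeq, a pooled yeast mating assay with surface-displayed partners. Pairs that bind mate more often; barcode pairs of the diploids are counted by sequencing. A regression on co-assayed BCL2-family reference pairs converts the normalised counts of each replicate to an apparent Kd. The assay was run in three technical replicates.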

Changes read parent residue, position, new residue, counted from the first residue of the VH shown. Values are log10 of the apparent Kd in nM; lower means stronger binding. The mean shown is taken over the replicates in which the pair was detected. An entry "ND" has no value in the source: the pair was not observed among the diploids in that replicate. This suggests poor binding but is not conclusive.

changes | log10 Kd (nM) by replicate | mean log10 Kd (nM) | control signals
F27H A61K F106D | 4.75 4.50 4.78 | 4.68 | 2/9 (4.61)
F29M H35P G102V | ND ND ND | ND | 0/9
F27N M34A S57F | ND ND ND | ND | 2/9 (4.45)
T28K S52C V64K | 4.50 5.53 5.01 | 5.01 | 9/9 (4.88)
D62C G103W F106C | ND ND ND | ND | 0/9
I51Y S52G V99I | ND ND ND | ND | 3/9 (4.57)
G50H S52Q N54L | 4.78 4.39 3.68 | 4.28 | 4/9 (4.83)
I51S S52L Y60T | ND ND ND | ND | 1/9 (3.88)
S55W K65Q Y105D | ND ND 4.73 | 4.73 | 2/9 (4.29)
G56E D62A K65Y | 4.38 ND 2.62 | 3.50 | 0/9
N54L D62M G104Y | ND ND ND | ND | 0/9
G50R G56M G59H | ND ND ND | ND | 2/9 (4.39)
I51S R101G | ND ND ND | ND | 0/9
K65A | 2.22 2.25 2.07 | 2.18 | 4/9 (4.69)
M34I | ND ND ND | ND | 0/9
G100M R101P G103W | 4.80 ND 3.90 | 4.35 | 3/9 (4.67)
W53Q Y60F D107V | ND 6.15 ND | 6.15 | 7/9 (3.98)
V99R Y105I | ND ND ND | ND | 0/9
F27M I51C G59K | ND 5.49 ND | 5.49 | 0/9
G26H T28Q D30H | ND 5.39 ND | 5.39 | 1/9 (4.06)
G26C D30R A61P | ND ND ND | ND | 0/9
D30A I58S Y108N | ND ND ND | ND | 0/9
D31R D107P Y108H | 3.67 ND ND | 3.67 | 0/9
D30W G59F R101V | ND ND ND | ND | 0/9
V64Q G104H F106P | ND ND ND | ND | 0/9
D31P V64L G102H | 4.64 4.30 ND | 4.47 | 2/9 (4.54)
Y105H D107T | ND 5.80 ND | 5.80 | 0/9
F27K S52I S55V | ND ND ND | ND | 0/9
S52I W53A V64D | 5.09 5.54 ND | 5.32 | 1/9 (4.98)
S63R G100V F106A | ND ND ND | ND | 0/9
A61H Y105V Y108V | 3.55 5.42 3.84 | 4.27 | 3/9 (4.32)
F27H D62C G100K | ND ND ND | ND | 0/9
S55K G104C Y108N | ND ND ND | ND | 0/9
S57D I58D V99K | ND ND ND | ND | 1/9 (3.84)
G56H G102D F106A | 4.80 4.68 ND | 4.74 | 1/9 (3.97)
D62A S63D G103S | ND ND ND | ND | 0/9
S52L S55A V99Y | ND ND ND | ND | 0/9
F27M V64N G102N | ND ND ND | ND | 2/9 (4.18)
N54G S57G D107C | ND ND ND | ND | 0/9
G59F V99I G100N | ND 3.25 ND | 3.25 | 0/9
I51F S57G G59R | ND ND ND | ND | 2/9 (4.65)
F29Q A33R R101K | ND ND 5.00 | 5.00 | 2/9 (4.77)
F29I Y32H | 2.72 2.10 1.99 | 2.27 | 3/9 (4.32)
F27C D30F R101N | 3.67 ND ND | 3.67 | 0/9
A33K V99Q | 4.62 3.72 ND | 4.17 | 2/9 (4.26)
Y60P R101S G102C | 3.82 ND ND | 3.82 | 4/9 (3.89)
T28W G50M S63N | ND ND ND | ND | 1/9 (4.64)
A61D K65C G102R | 3.74 ND ND | 3.74 | 1/9 (3.58)
Y32M S57D D62N | 2.95 2.83 2.94 | 2.91 | 1/9 (4.78)
G50S W53A R101D | 4.62 ND ND | 4.62 | 1/9 (3.99)
S52R K65H V99W | ND ND ND | ND | 1/9 (4.11)
D62K F106P D107M | 3.58 4.24 2.97 | 3.59 | 6/9 (3.97)

For reference, the parent read 1.86 as the reference entry and 0.88 as a member of this library. Three control strains display no target. For library AAYL51, 21% of the pairings with them gave a signal, with a median of 4.54 and one signal in twenty below 3.26, so weak values seen in few replicates may be background. Also given: how often the same scFv was detected with the empty control strains, with their mean in brackets.